From BindingDB's records for patent US9200006 (Medivir, 2015)

Amino acid sequences for entries named in this document (tags omitted).
UniProt P25774, whole entry: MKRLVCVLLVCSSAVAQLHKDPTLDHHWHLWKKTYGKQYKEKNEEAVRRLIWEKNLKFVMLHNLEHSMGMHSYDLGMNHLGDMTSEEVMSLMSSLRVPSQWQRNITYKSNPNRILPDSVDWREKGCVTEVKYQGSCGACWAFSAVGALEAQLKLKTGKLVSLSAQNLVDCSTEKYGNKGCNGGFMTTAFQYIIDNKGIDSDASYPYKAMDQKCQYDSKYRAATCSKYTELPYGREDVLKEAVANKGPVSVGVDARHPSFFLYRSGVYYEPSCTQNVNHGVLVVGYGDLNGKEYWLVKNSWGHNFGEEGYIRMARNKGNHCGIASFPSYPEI

Target: Cathepsin S (Homo sapiens, UniProt P25774)
Assay: Biological Assay (Test 1)
Conditions: pH 7
Procedure: Standard assay conditions for the determination of kinetic constants used a fluorogenic peptide substrate, typically H-D-Ala-Leu-Lys-AMC, and were determined in either 100 mM Mes/Tris, pH 7.0 containing 1 mM EDTA and 10 mM 2-mercaptoethanol or 100 mMNa phosphate, imM EDTA, 0.1% PEG4000 pH 6.5 or 100 mM Na acetate, pH 5.5 containing 5 mM EDTA and 20 mM cysteine, in each case optionally with 1M DTT as stabiliser. The enzyme concentration used was 5 nM. The stock substrate solution was prepared at 10 mM in DMSO. Screens were carried out at a fixed substrate concentration of 60 uM and detailed kinetic studies with doubling dilutions of substrate from 250 uM. The total DMSO concentration in the assay was kept below 3%. All assays were conducted at ambient temperature. Product fluorescence (excitation at 390 nm, emission at 460 nm) was monitored with a Labsystems Fluoroskan Ascent fluorescent plate reader. The first test compound prepared in DMSO is added to column 1 of the top row.

For `C#C[C@@H]1CN(C(=O)[C@H](CC(C)C)NC(=O)c2ccc(-c3csc(N4CCN(C)CC4)n3)c(F)c2)[C@@H]2C(=O)CO[C@H]12` [US9200006, 3], which Ki is on record?
Its Ki is over 10 µM.
